{
  "sequences": {"note": "By UniProt entry, the sequences of proteins in these tests, tags left out. Residues count along the entry.", "UniProt P43220, 24-463 limits assumed": "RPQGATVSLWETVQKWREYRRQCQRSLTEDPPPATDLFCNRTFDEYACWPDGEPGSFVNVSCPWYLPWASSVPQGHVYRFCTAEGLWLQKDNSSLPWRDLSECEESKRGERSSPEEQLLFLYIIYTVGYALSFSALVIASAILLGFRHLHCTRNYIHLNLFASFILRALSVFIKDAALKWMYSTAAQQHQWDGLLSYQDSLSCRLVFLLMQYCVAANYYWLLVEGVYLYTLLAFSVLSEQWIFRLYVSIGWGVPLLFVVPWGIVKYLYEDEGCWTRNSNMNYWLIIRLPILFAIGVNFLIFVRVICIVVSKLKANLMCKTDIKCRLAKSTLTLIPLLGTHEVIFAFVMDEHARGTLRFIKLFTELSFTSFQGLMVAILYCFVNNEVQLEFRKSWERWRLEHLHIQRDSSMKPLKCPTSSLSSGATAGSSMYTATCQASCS"},
  "source": "patent US20230203021A1",
  "about": "“GLP-1 RECEPTOR AGONIST, PHARMACEUTICAL COMPOSITION COMPRISING SAME, AND METHOD FOR PREPARING SAME” (LG CHEM, LTD., priority 2020, published 2023)",
  "molecular_target": "hGLP-1R (Homo sapiens, UniProt P43220)",
  "assay": "Measurement of activity of GLP-1R agonist (cell-based luciferase assay), CHO-K1/hGLP-1R/CRE-luciferase cell line",
  "conditions": "GLP-1R activity; CHO-K1/hGLP-1R/CRE-luciferase cells, 9 concentrations, four hours of incubation, Bright-Glo luminescence",
  "data": [
    {"smiles": "O=C(O)c1ccc2nc(Cc3ccc(-c4cccc(OCc5ccc(Cl)cc5F)n4)cc3)n(Cc3cnco3)c2c1", "values": [
      {"measurement": "EC50", "value": 2.93, "unit": "nM"}
    ]}
  ]
}
